Data as given in US10189794B2, “Heteroaryl compounds and uses thereof” (Celgene CAR LLC, priority 2013, dated 2019).

Chains of the proteins cited; added tags and fusions are not shown. Residues count along the entry.
UniProt P22455, 460-802: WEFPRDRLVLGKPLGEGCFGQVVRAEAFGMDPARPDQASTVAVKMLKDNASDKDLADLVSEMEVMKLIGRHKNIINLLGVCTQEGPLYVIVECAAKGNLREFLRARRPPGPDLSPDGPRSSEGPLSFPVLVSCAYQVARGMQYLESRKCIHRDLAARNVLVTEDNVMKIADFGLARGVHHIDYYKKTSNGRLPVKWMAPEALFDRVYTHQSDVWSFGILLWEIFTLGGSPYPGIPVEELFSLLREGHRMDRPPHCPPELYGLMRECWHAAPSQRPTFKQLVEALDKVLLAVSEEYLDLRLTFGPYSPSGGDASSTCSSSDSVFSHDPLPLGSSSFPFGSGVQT

Target: FGFR4 intact protein (Homo sapiens (Human), UniProt P22455)
Settings: 10-fold excess of compound, 60 min

| MS FGFR4 (mass modification) (method a (SignalChem FGFR4)) | MS FGFR4 (mass modification) (method b (Invitrogen FGFR4)) | Structure (SMILES) |
| --- | --- | --- |
| F (mass modification of 31-69%) |  | C=CC(=O)NC1CCCCC1Nc1ncc2c(n1)N(Cc1cccc(NC(=O)CC)c1)C(=O)N(c1c(Cl)c(OC)cc(OC)c1Cl)C2 (racemic) [I-8] |
| E (mass modification of ≥70%) |  | C=CC(=O)NC1CCCCC1Nc1ncc2c(n1)N(C)C(=O)N(c1c(Cl)c(OC)cc(OC)c1Cl)C2 (racemic) [I-19] |
| E (mass modification of ≥70%) |  | C=CC(=O)Nc1ccccc1Nc1ncc2c(n1)N(C)C(=O)N(c1c(Cl)c(OC)cc(OC)c1Cl)C2 [I-2] |
| E (mass modification of ≥70%) |  | C=CC(=O)Nc1ccccc1Nc1ncc2c(n1)N(C)C(=O)N(c1cc(OC)cc(OC)c1)C2 [I-5] |
| G (mass modification ≤30%) |  | C=CC(=O)Nc1cc(C(F)(F)F)ccc1Nc1ncc2c(n1)N(Cc1ccccc1)C(=O)N(c1c(Cl)c(OC)cc(OC)c1Cl)C2 [I-10] |
| E (mass modification of ≥70%) |  | C=CC(=O)Nc1ccccc1Nc1ncc2c(n1)N(Cc1cccc(F)c1)C(=O)N(c1c(Cl)c(OC)cc(OC)c1Cl)C2 [I-12] |
| E (mass modification of ≥70%) |  | C=CC(=O)Nc1cc(N(C)CCOC)ccc1Nc1ncc2c(n1)N(Cc1ccccc1)C(=O)N(c1cc(OC)cc(OC)c1)C2 [I-13] |
| E (mass modification of ≥70%) |  | C=CC(=O)Nc1cc(OCCOC)ccc1Nc1ncc2c(n1)N(Cc1ccccc1)C(=O)N(c1cc(OC)cc(OC)c1)C2 [I-14] |
| E (mass modification of ≥70%) |  | C=CC(=O)Nc1cc(N2CCN(CC)CC2)ccc1Nc1ncc2c(n1)N(C)C(=O)N(c1cc(OC)cc(OC)c1)C2 [I-15] |
| E (mass modification of ≥70%) |  | C=CC(=O)Nc1cc(N2CCOCC2)ccc1Nc1ncc2c(n1)N(C)C(=O)N(c1cc(OC)cc(OC)c1)C2 [I-17] |
| E (mass modification of ≥70%) |  | C=CC(=O)Nc1ccccc1Nc1ncc2c(n1)N(C1CC1)C(=O)N(c1c(Cl)c(OC)cc(OC)c1Cl)C2 [I-23] |
| E (mass modification of ≥70%) |  | C=CC(=O)Nc1ccccc1Nc1ncc2c(n1)N(Cc1ccc(Cl)c(OC)c1)C(=O)N(c1c(Cl)c(OC)cc(OC)c1Cl)C2 [I-24] |
| E (mass modification of ≥70%) |  | C=CC(=O)Nc1ccccc1Nc1ncc2c(n1)N(Cc1ccc(F)cc1)C(=O)N(c1c(Cl)c(OC)cc(OC)c1Cl)C2 [I-25] |
| E (mass modification of ≥70%) |  | C=CC(=O)Nc1ccccc1Nc1ncc2c(n1)N(Cc1cccc(N)c1)C(=O)N(c1c(Cl)c(OC)cc(OC)c1Cl)C2 [I-26] |
| E (mass modification of ≥70%) |  | C=CC(=O)Nc1cc(N2CCCCC2)ccc1Nc1ncc2c(n1)N(C)C(=O)N(c1cc(OC)cc(OC)c1)C2 [I-31] |
| E (mass modification of ≥70%) |  | C=CC(=O)Nc1ccccc1Nc1ncc2c(n1)N(C1CC1)C(=O)N(c1cc(OC)cc(OC)c1)C2 [I-34] |

| MS FGFR4 (mass modification) (method a (SignalChem FGFR4)) | MS FGFR4 (mass modification) (method b (Invitrogen FGFR4)) | Structure (SMILES) |
| --- | --- | --- |
| E (mass modification of ≥70%) |  | C=CC(=O)Nc1ccccc1Nc1ncc2c(n1)N(C)C(=O)N(c1ccccc1)C2 [I-38] |
|  | E (mass modification of ≥70%) | C=CC(=O)Nc1ccccc1Nc1ncc2c(n1)N(C1CCCNC1)C(=O)N(c1cc(OC)cc(OC)c1)C2 (stereo not shown) [I-43] |
|  | E (mass modification of ≥70%) | C=CC(=O)Nc1ccccc1Nc1ncc2c(n1)N(Cc1cccnc1)C(=O)N(c1cc(OC)cc(OC)c1)C2 [I-44] |
| E (mass modification of ≥70%) |  | C=CC(=O)Nc1ccccc1Nc1ncc2c(n1)N(CC#N)C(=O)N(c1cc(OC)cc(OC)c1)C2 [I-48] |
| E (mass modification of ≥70%) |  | C=CC(=O)Nc1ccc(C)cc1Nc1ncc2c(n1)N(C)C(=O)N(c1cc(OC)cc(OC)c1)C2 [I-49] |
| E (mass modification of ≥70%) |  | C=CC(=O)Nc1ccc(C(F)(F)F)cc1Nc1ncc2c(n1)N(C)C(=O)N(c1cc(OC)cc(OC)c1)C2 [I-50] |
|  | E (mass modification of ≥70%) | C=CC(=O)Nc1ccccc1Nc1ncc2c(n1)N(Cc1cscn1)C(=O)N(c1cc(OC)cc(OC)c1)C2 [I-64] |
|  | G (mass modification ≤30%) | C=CC(=O)N[C@@H]1CCCC[C@@H]1Nc1ncc2c(n1)N(Cc1ccccc1)C(=O)N(c1c(Cl)c(OC)cc(OC)c1Cl)C2 [I-66] |
|  | E (mass modification of ≥70%) | C=CC(=O)Nc1ccccc1Nc1ncc2c(n1)N(C)C(=O)N(c1c(Cl)cccc1Cl)C2 [I-83] |
|  | E (mass modification of ≥70%) | C=CC(=O)Nc1nn(C)cc1Nc1ncc2c(n1)N(C)C(=O)N(c1c(Cl)c(OC)cc(OC)c1Cl)C2 [I-117] |
| E (mass modification of ≥70%) |  | C=CC(=O)NCc1ccccc1Nc1ncc2c(n1)N(Cc1cccc(NC(=O)CC)c1)C(=O)N(c1c(Cl)c(OC)cc(OC)c1Cl)C2 [I-179] |
| E (mass modification of ≥70%) |  | C=CC(=O)NCc1ccccc1Nc1ncc2c(n1)N(C)C(=O)N(c1c(Cl)c(OC)cc(OC)c1Cl)C2 [I-181] |
| G (mass modification ≤30%) |  | CCC(=O)Nc1ccccc1Nc1ncc2c(n1)N(Cc1ccccc1)C(=O)N(c1c(Cl)c(OC)cc(OC)c1Cl)C2 [I-236] |
| G (mass modification ≤30%) |  | COc1cc(OC)cc(N2Cc3cnc(Nc4ccccc4)nc3N(C)C2=O)c1 [I-237] |
| G (mass modification ≤30%) |  | COc1cc(OC)c(Cl)c(N2Cc3cnc(Nc4ccccc4)nc3N(C)C2=O)c1Cl [I-238] |

| Structure (SMILES) | MS FGFR4 (mass modification) (method a (SignalChem FGFR4)) | MS FGFR4 (mass modification) (method b (Invitrogen FGFR4)) |
| --- | --- | --- |
| C=CC(=O)NC1CCCCC1Nc1ncc2c(n1)N(Cc1cccnc1)C(=O)N(c1c(Cl)c(OC)cc(OC)c1Cl)C2 (racemic) [I-35] | E (mass modification of ≥70%) |  |
| C=CC(=O)NC1CCCCC1Nc1ncc2c(n1)N(C1CCCNC1)C(=O)N(c1cc(OC)cc(OC)c1)C2 (racemic) [I-46] | G (mass modification ≤30%) |  |
| C=CC(=O)NC1CCCCC1Nc1ncc2c(n1)N(CC#N)C(=O)N(c1c(Cl)c(OC)cc(OC)c1Cl)C2 (racemic) [I-47] | E (mass modification of ≥70%) |  |
| C=CC(=O)NC1CCCCC1Nc1ncc2c(n1)N(Cc1cscn1)C(=O)N(c1c(Cl)c(OC)cc(OC)c1Cl)C2 (racemic) [I-69] |  | E (mass modification of ≥70%) |
| C=CC(=O)Nc1ccccc1Nc1ncc2c(n1)N(Cc1cccc(NC(=O)CC)c1)C(=O)N(c1c(Cl)c(OC)cc(OC)c1Cl)C2 [I-1] | E (mass modification of ≥70%) |  |
| C=CC(=O)Nc1cc(N2CCN(C(C)=O)CC2)ccc1Nc1ccc2c(c1)N(C)C(=O)N(c1cc(OC)cc(OC)c1)C2 [I-55] | F (mass modification of 31-69%) |  |
| C=CC(=O)Nc1ccccc1Nc1ncc2cc(-c3cc(OC)cc(OC)c3)c(N)nc2n1 [I-155] | E (mass modification of ≥70%) |  |
| C=CC(=O)Nc1cccc(Nc2ncc3c(n2)N(Cc2cccc(NC(=O)CC)c2)C(=O)N(c2c(Cl)c(OC)cc(OC)c2Cl)C3)c1 [I-232] | G (mass modification ≤30%) |  |
| C=CC(=O)Nc1ccc(Nc2ncc3c(n2)N(Cc2cccc(NC(=O)CC)c2)C(=O)N(c2c(Cl)c(OC)cc(OC)c2Cl)C3)cc1 [I-233] | G (mass modification ≤30%) |  |

Read-outs that look alike come from different tables or passages of the source.
